# Measured values reported in patent US10945932B2, “Prebiotic oral care compositions containing carboxylic acids” (COLGATE-PALMOLIVE COMPANY, priority 2013, dated 2021).
# What was measured:
# Assay type in all cases: cell-based
# Actinomyces naeslundii = experiment: Metabolic activity, Biolog phenotype microarray; conditions: A naeslundii
# Description: (§1) The extent of metabolic activity of the tested bacteria in the presence of the above-mentioned acids after 24 hours and 48 hours was investigated through a high throughput phenotype microarray system (PM) for microbial cells (Biolog Inc.). Each PM can contain up to 95 different biochemical compounds (e.g. organic acids) that may act as substrates for bacteria as well as one negative control, not containing the substrates. Microarray plates were used in which the different wells of each plate were pre-loaded (by the manufacturer, Biolog Inc.) with different organic acids to be tested. Each bacterial species was tested using a separate microarray plate. Thus, a single bacterial species was tested with a variety of organic acids on each particular plate. The microarrays are based on redox technology, using cell respiration as a universal reporter. […] The observation of this color change indicates which of the substrates improve the metabolic activity and health of the cells.
# (§2) Each bacterial species was collected from blood agar plates (incubated for 48 hours anaerobically at 37° C.) and transferred to an IF-0 Base inoculation fluid (Biolog Inc.), which is a nutritionally poor medium. […] A 1:5 dilution of this suspension was prepared by mixing 3 mL of the 42% transmittance cell suspension with 15 mL of an inoculation fluid (which inoculation fluid was formed by mixing 11.6 mL sterile water, 62.5 mL IF-0 base inoculation fluid and 0.9 mL of the tetrazolium dye “Biolog Redox Dye mix D”), resulting in a final cell density which was equal to 85% transmittance using a BioRad SmartSpec 3000 Photometer. For each of the acids tested, the microarray plate (obtained from the supplier (Biolog Inc.) with acid already present in the relevant wells in powder form) was directly inoculated with 100 μL/well of this 85% transmittance cell suspension.
# (§3) All plates were incubated in an anaerobic atmosphere at 37° C. Color changes were measured spectrophotometrically at 492 nm (Thermo Scientific Multiskan Ascent) at 24 hrs and 48 hrs using the same plate at both time points.
# (§4) The controls were also carried out three times, as above.
# Actinomyces viscosus = experiment: Metabolic activity, Biolog phenotype microarray; conditions: A viscosus
# Description: as §1, §2, §3, §4
# [1] = tested on: Aggregatibacter actinomycetemcomitans; experiment: Metabolic activity, Biolog phenotype microarray; conditions: A actinomycetemcomitans
# Description: as §1, §2, §3, §4
# Capnocytophaga sputigena = experiment: Metabolic activity, Biolog phenotype microarray; conditions: C sputigena
# Description: as §1, §2, §3, §4
# Fusobacterium nucleatum = experiment: Metabolic activity, Biolog phenotype microarray; conditions: F nucleatum
# Description: as §1, §2, §3, §4
# Porphyromonas gingivalis = experiment: Metabolic activity, Biolog phenotype microarray; conditions: P gingivalis
# Description: as §1, §2, §3, §4
# Prevotella intermedia = experiment: Metabolic activity, Biolog phenotype microarray; conditions: P intermedia
# Description: as §1, §2, §3, §4
# Streptococcus gordonii = experiment: Metabolic activity, Biolog phenotype microarray; conditions: S gordonii
# Description: as §1, §2, §3, §4
# Streptococcus mitis = experiment: Metabolic activity, Biolog phenotype microarray; conditions: S mitis
# Description: as §1, §2, §3, §4
# Streptococcus mutans = experiment: Metabolic activity, Biolog phenotype microarray; conditions: S mutans
# Description: as §1, §2, §3, §4
# Streptococcus salivarius = experiment: Metabolic activity, Biolog phenotype microarray; conditions: S salivarius
# Description: as §1, §2, §3, §4
# Streptococcus sanguinis = experiment: Metabolic activity, Biolog phenotype microarray; conditions: S sanguinis
# Description: as §1, §2, §3, §4
# Streptococcus sobrinus = experiment: Metabolic activity, Biolog phenotype microarray; conditions: S sobrinus
# Description: as §1, §2, §3, §4
# Tannerella forsythia = experiment: Metabolic activity, Biolog phenotype microarray; conditions: T forsythia
# Description: as §1, §2, §3, §4
# Veillonella parvula = experiment: Metabolic activity, Biolog phenotype microarray; conditions: V parvula
# Description: as §1, §2, §3, §4
# [2] = tested on: beneficial oral bacteria and pathogenic oral bacteria; experiment: Metabolic activity, prebiotic effect over the whole panel; conditions: 48 hrs; threshold value of 2
# Description: as §1, with “cells. […]” for “cells.”
# All plates were incubated in an anaerobic atmosphere at 37° C. Color changes were measured spectrophotometrically at 492 nm (Thermo Scientific Multiskan Ascent) at 24 hrs and 48 hrs using the same plate at both time points. […]
smiles,measurement,setting,value
"O=C(O)CCC(=O)C(=O)O [Alpha-keto-glutaric acid, alpha-keto-glutaric acid]","metabolic activity, OD at 492 nm divided by OD of control (control = 1)",Actinomyces naeslundii; 24 hrs,0.9093
same,"metabolic activity, OD at 492 nm divided by OD of control (control = 1)",Actinomyces naeslundii; 48 hrs,0.9031
same,"metabolic activity, OD at 492 nm divided by OD of control (control = 1)",Actinomyces viscosus; 24 hrs,0.9915
same,"metabolic activity, OD at 492 nm divided by OD of control (control = 1)",Actinomyces viscosus; 48 hrs,1.0515
same,"metabolic activity, OD at 492 nm divided by OD of control (control = 1)",[1]; 24 hrs,1.0311
same,"metabolic activity, OD at 492 nm divided by OD of control (control = 1)",[1]; 48 hrs,1.2745
same,"metabolic activity, OD at 492 nm divided by OD of control (control = 1)",Capnocytophaga sputigena; 24 hrs,0.6312
same,"metabolic activity, OD at 492 nm divided by OD of control (control = 1)",Capnocytophaga sputigena; 48 hrs,0.8910
same,"metabolic activity, OD at 492 nm divided by OD of control (control = 1)",Fusobacterium nucleatum; 24 hrs,0.8164
same,"metabolic activity, OD at 492 nm divided by OD of control (control = 1)",Fusobacterium nucleatum; 48 hrs,1.4088
same,"metabolic activity, OD at 492 nm divided by OD of control (control = 1)",Porphyromonas gingivalis; 24 hrs,0.8494
same,"metabolic activity, OD at 492 nm divided by OD of control (control = 1)",Porphyromonas gingivalis; 48 hrs,0.8493
same,"metabolic activity, OD at 492 nm divided by OD of control (control = 1)",Prevotella intermedia; 24 hrs,1.0787
same,"metabolic activity, OD at 492 nm divided by OD of control (control = 1)",Prevotella intermedia; 48 hrs,1.1353
same,"metabolic activity, OD at 492 nm divided by OD of control (control = 1)",Streptococcus gordonii; 24 hrs,0.9127
same,"metabolic activity, OD at 492 nm divided by OD of control (control = 1)",Streptococcus gordonii; 48 hrs,0.9193
same,"metabolic activity, OD at 492 nm divided by OD of control (control = 1)",Streptococcus mitis; 24 hrs,1.0211
same,"metabolic activity, OD at 492 nm divided by OD of control (control = 1)",Streptococcus mitis; 48 hrs,1.0001
same,"metabolic activity, OD at 492 nm divided by OD of control (control = 1)",Streptococcus mutans; 24 hrs,1.0330
same,"metabolic activity, OD at 492 nm divided by OD of control (control = 1)",Streptococcus mutans; 48 hrs,1.0484
same,"metabolic activity, OD at 492 nm divided by OD of control (control = 1)",Streptococcus salivarius; 24 hrs,1.1057
same,"metabolic activity, OD at 492 nm divided by OD of control (control = 1)",Streptococcus salivarius; 48 hrs,1.1207
same,"metabolic activity, OD at 492 nm divided by OD of control (control = 1)",Streptococcus sanguinis; 24 hrs,0.9629
same,"metabolic activity, OD at 492 nm divided by OD of control (control = 1)",Streptococcus sanguinis; 48 hrs,1.0284
same,"metabolic activity, OD at 492 nm divided by OD of control (control = 1)",Streptococcus sobrinus; 24 hrs,0.9463
same,"metabolic activity, OD at 492 nm divided by OD of control (control = 1)",Streptococcus sobrinus; 48 hrs,0.9784
same,"metabolic activity, OD at 492 nm divided by OD of control (control = 1)",Tannerella forsythia; 24 hrs,0.9714
same,"metabolic activity, OD at 492 nm divided by OD of control (control = 1)",Tannerella forsythia; 48 hrs,1.0338
same,"metabolic activity, OD at 492 nm divided by OD of control (control = 1)",Veillonella parvula; 24 hrs,1.4942
same,"metabolic activity, OD at 492 nm divided by OD of control (control = 1)",Veillonella parvula; 48 hrs,2.1872
same,prebiotic effect (metabolic activity),[2],exhibited prebiotic effects
